The record followed here is patent US11136295B2, “D-amphetamine compounds, compositions, and processes for making and using the same” (KemPharm, Inc., priority 2018, dated 2021).

Data set [1] can be described thus: Intranasal pharmacokinetic study in rats (plasma amphetamine by LC-MS/MS). The data set is classed as in vivo, rat. Particulars: compared to AMP-CO2CH2-nicotinate(Et), FIG. 31.
A short description of data set [2]: Oral pharmacokinetic study in rats (plasma amphetamine by LC-MS/MS). Type of data set: in vivo. The conditions noted are these: d-amphetamine in plasma; rat, oral gavage, 5.6 μmol/kg; 6-hour time course. The protocol:
Conjugates of d-amphetamine, and d-amphetamine sulfate or lisdexamfetamine dimesylate comparator compound were dissolved in an appropriate vehicle and administered in rats via oral gavage at doses of 5.6 μmol/kg. Whole blood samples were collected via retro-orbital bleeding at 0.25, 0.5, 1, 2, 4, and optionally at 3 and 6 hours postdose. Blood samples were centrifuged and the resulting plasma samples were collected for analysis of amphetamine concentrations by LC-MS/MS.

With “d-amphetamine-CO2CH2-isonicotinate ethyl ester [AMP-CO2CH2-isonicotinate(Et)]”, the “exposure to d-amphetamine after intranasal administration compared to the nicotinate analogue” value in data set [1] is on record as “decreases exposure to d-amphetamine”.
By Cmax is commonly meant the maximum level reached in the sampled fluid or tissue. In general, Tmax refers to the time at which the peak concentration occurs. In the case of “d-amphetamine-CO2CH2-isonicotinoyl-beta-alanine ethyl ester [AMP-CO2CH2-isonicotinoyl-β-Ala-OEt]”, in data set [2], the AUC0-4 hr was 103.2 ng·h/mL, the AUC0-6 hr stood at 148.7 ng·h/mL, the Cmax came to 39.8 ng/mL and the Tmax was found to be 2.1 h.
